Results as given in PMC7245249 (Biomedical Journal, 2020).

Test: in vitro
Settings: cat (Felis catus)

Question: Which CC50 does the source give for COc1ccc(C[C@H]2NC[C@H](O)[C@H]2OC(C)=O)cc1 [Anisomycin] here?
Answer: 47 ± 12 nM
